Reference: US8399457B2, “Pharmaceutical compounds” (Neuroscienze Pharmaness S.C. A.R.L., priority 2008, dated 2013)

Chains of the proteins cited; added tags and fusions are not shown.
UniProt P42866, whole entry: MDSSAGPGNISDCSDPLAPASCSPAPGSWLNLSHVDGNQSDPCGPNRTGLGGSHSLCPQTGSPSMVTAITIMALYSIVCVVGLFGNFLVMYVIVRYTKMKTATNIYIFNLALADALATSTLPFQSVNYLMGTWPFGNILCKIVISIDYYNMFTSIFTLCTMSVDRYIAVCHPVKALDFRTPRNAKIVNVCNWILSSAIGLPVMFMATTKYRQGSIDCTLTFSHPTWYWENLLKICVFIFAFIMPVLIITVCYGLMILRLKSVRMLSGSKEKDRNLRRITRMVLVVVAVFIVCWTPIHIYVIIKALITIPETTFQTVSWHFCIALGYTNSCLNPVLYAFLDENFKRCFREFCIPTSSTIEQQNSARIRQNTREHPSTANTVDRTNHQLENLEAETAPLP
UniProt P33534, whole entry: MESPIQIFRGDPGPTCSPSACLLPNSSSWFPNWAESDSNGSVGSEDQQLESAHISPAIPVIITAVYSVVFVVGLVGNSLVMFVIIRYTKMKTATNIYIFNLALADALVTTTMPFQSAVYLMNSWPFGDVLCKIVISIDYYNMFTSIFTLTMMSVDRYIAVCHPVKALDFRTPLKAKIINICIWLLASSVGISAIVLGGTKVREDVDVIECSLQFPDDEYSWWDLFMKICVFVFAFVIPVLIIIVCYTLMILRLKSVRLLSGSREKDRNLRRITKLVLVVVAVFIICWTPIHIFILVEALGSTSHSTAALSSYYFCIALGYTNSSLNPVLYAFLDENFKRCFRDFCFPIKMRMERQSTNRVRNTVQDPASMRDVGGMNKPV

Experiments:
Set-up in all cases: species or system CD1 male mice
opioidergic receptors μ = opioidergic receptors μ (Mus musculus, UniProt P42866); assay: Radioreceptorial binding, receptors μ, [3H]-DAMGO displacement in mouse brain membranes; conditions: read-out: Ki μ, 1 nM [3H]-DAMGO, 25° C.
opioidergic receptors δ = opioidergic receptors δ (Mus musculus, UniProt P32300); assay: Radioreceptorial binding, receptors δ, [3H]-DPDPE displacement in mouse brain membranes; conditions: read-out: Ki δ, 1 nM [3H]-DPDPE, 25° C.
opioidergic receptors k = opioidergic receptors k (Mus musculus, UniProt P33534); assay: Radioreceptorial binding, receptors k, 3H-U 69.593 in mouse brain membranes; conditions: read-out: Ki k, 3H-U 69.593, 25° C.

## CCC(=O)N1CCC2CCC(C1)N2C/C=C(\C)c1ccc(Cl)c2ccccc12 (stereo not shown)
Opioidergic receptors μ
  Ki: 0.0567 µM
Opioidergic receptors δ
  Ki: 2 µM
Opioidergic receptors k
  Ki: 2.5 µM

## CCC(=O)N1C2CCC1CN(C/C=C(\C)c1ccc(Cl)c3ccccc13)CC2 (stereo not shown)
Opioidergic receptors δ
  Ki: > 5 µM
